{"source": "paper PMC5814754", "about": "“Quantitative, Wide-Spectrum Kinase Profiling in Live Cells for Assessing the Effect of Cellular ATP on Target Engagement” (Cell Chemical Biology, 2018)", "key": {"[1]": {"test_system": "kinases in Jurkat cells", "set-up": "method as in Zhao et al., 2017", "settings": "100 nM dasatinib; live Jurkat cells; covalent capture probe; ref Zhao et al., 2017; cited from earlier work"}, "[2]": {"test_system": "BCR-ABL oncoprotein", "set-up": "method as in Savitski et al., 2014", "settings": "thermal profiling in live cells; ref Savitski et al., 2014; cited from earlier work"}, "[3]": {"target": "178 full-length kinases (Homo sapiens, UniProt O75460)", "test": "NanoBRET single-dose fractional occupancy profiling of kinase/Nluc library in live HEK293 cells (Table S1)", "set-up": "dose or concentration left out as unconfirmed", "settings": "ERN1, Nluc C, probe 5"}, "[4]": {"target": "178 full-length kinases (Homo sapiens, UniProt O76039)", "test": "NanoBRET single-dose fractional occupancy profiling of kinase/Nluc library in live HEK293 cells (Table S1)", "set-up": "dose or concentration left out as unconfirmed", "settings": "CDKL5, Nluc N, probe 5"}, "[5]": {"target": "178 full-length kinases (Homo sapiens, UniProt O95835)", "test": "NanoBRET single-dose fractional occupancy profiling of kinase/Nluc library in live HEK293 cells (Table S1)", "set-up": "dose or concentration left out as unconfirmed", "settings": "LATS1, Nluc C, probe 5"}, "[6]": {"target": "178 full-length kinases (Homo sapiens, UniProt P17612)", "test": "NanoBRET single-dose fractional occupancy profiling of kinase/Nluc library in live HEK293 cells (Table S1)", "set-up": "dose or concentration left out as unconfirmed", "settings": "PRKACA, Nluc C, probe 5"}, "[7]": {"target": "178 full-length kinases (Homo sapiens, UniProt P31152)", "test": "NanoBRET single-dose fractional occupancy profiling of kinase/Nluc library in live HEK293 cells (Table S1)", "set-up": "dose or concentration left out as unconfirmed", "settings": "MAPK4, Nluc N, probe 5"}, "[8]": {"target": "178 full-length kinases (Homo sapiens, UniProt P42338)", "test": "NanoBRET single-dose fractional occupancy profiling of kinase/Nluc library in live HEK293 cells (Table S1)", "set-up": "dose or concentration left out as unconfirmed", "settings": "PIK3CB, Nluc N, probe 3"}, "[9]": {"target": "178 full-length kinases (Homo sapiens, UniProt P51956)", "test": "NanoBRET single-dose fractional occupancy profiling of kinase/Nluc library in live HEK293 cells (Table S1)", "set-up": "dose or concentration left out as unconfirmed", "settings": "NEK3, Nluc N, probe 5"}, "[10]": {"target": "178 full-length kinases (Homo sapiens, UniProt P78368)", "test": "NanoBRET single-dose fractional occupancy profiling of kinase/Nluc library in live HEK293 cells (Table S1)", "set-up": "dose or concentration left out as unconfirmed", "settings": "CSNK1G2, Nluc N, probe 5"}, "[11]": {"target": "178 full-length kinases (Homo sapiens, UniProt Q12852)", "test": "NanoBRET single-dose fractional occupancy profiling of kinase/Nluc library in live HEK293 cells (Table S1)", "set-up": "dose or concentration left out as unconfirmed", "settings": "MAP3K12, Nluc N, probe 5"}, "[12]": {"target": "178 full-length kinases (Homo sapiens, UniProt Q13237)", "test": "NanoBRET single-dose fractional occupancy profiling of kinase/Nluc library in live HEK293 cells (Table S1)", "set-up": "dose or concentration left out as unconfirmed", "settings": "PRKG2, Nluc C, probe 5"}, "[13]": {"target": "178 full-length kinases (Homo sapiens, UniProt Q13470)", "test": "NanoBRET single-dose fractional occupancy profiling of kinase/Nluc library in live HEK293 cells (Table S1)", "set-up": "dose or concentration left out as unconfirmed", "settings": "TNK1 (NP_003976), Nluc orientation N, probe 5; replicate 1"}, "[14]": {"target": "178 full-length kinases (Homo sapiens, UniProt Q13705)", "test": "NanoBRET single-dose fractional occupancy profiling of kinase/Nluc library in live HEK293 cells (Table S1)", "set-up": "dose or concentration left out as unconfirmed", "settings": "ACVR2B, Nluc C, probe 2"}, "[15]": {"target": "178 full-length kinases (Homo sapiens, UniProt Q15831)", "test": "NanoBRET single-dose fractional occupancy profiling of kinase/Nluc library in live HEK293 cells (Table S1)", "set-up": "dose or concentration left out as unconfirmed", "settings": "STK11 (NP_000446), Nluc orientation N, probe 5; replicate 2"}, "[16]": {"target": "178 full-length kinases (Homo sapiens, UniProt Q8IVH8)", "test": "NanoBRET single-dose fractional occupancy profiling of kinase/Nluc library in live HEK293 cells (Table S1)", "set-up": "dose or concentration left out as unconfirmed", "settings": "MAP4K3, Nluc N, probe 5"}, "[17]": {"target": "178 full-length kinases (Homo sapiens, UniProt Q8IYT8)", "test": "NanoBRET single-dose fractional occupancy profiling of kinase/Nluc library in live HEK293 cells (Table S1)", "set-up": "dose or concentration left out as unconfirmed", "settings": "ULK2 (NP_001136082), Nluc orientation N, probe 5; replicate 2"}, "[18]": {"target": "178 full-length kinases (Homo sapiens, UniProt Q8WU08)", "test": "NanoBRET single-dose fractional occupancy profiling of kinase/Nluc library in live HEK293 cells (Table S1)", "set-up": "dose or concentration left out as unconfirmed", "settings": "STK32A (NP_001106195), Nluc orientation N, probe 5; replicate 2"}, "[19]": {"target": "178 full-length kinases (Homo sapiens, UniProt Q92630)", "test": "NanoBRET single-dose fractional occupancy profiling of kinase/Nluc library in live HEK293 cells (Table S1)", "set-up": "dose or concentration left out as unconfirmed", "settings": "DYRK2, Nluc C, probe 5"}, "[20]": {"target": "178 full-length kinases (Homo sapiens, UniProt Q9NSY1)", "test": "NanoBRET single-dose fractional occupancy profiling of kinase/Nluc library in live HEK293 cells (Table S1)", "set-up": "dose or concentration left out as unconfirmed", "settings": "BMP2K, Nluc N, probe 5"}, "[21]": {"target": "178 full-length kinases (Homo sapiens, UniProt Q9NY57)", "test": "NanoBRET single-dose fractional occupancy profiling of kinase/Nluc library in live HEK293 cells (Table S1)", "set-up": "dose or concentration left out as unconfirmed", "settings": "STK32B (NP_060871), Nluc orientation N, probe 5; replicate 1"}, "[22]": {"target": "178 full-length kinases (Homo sapiens, UniProt Q9UBE8)", "test": "NanoBRET single-dose fractional occupancy profiling of kinase/Nluc library in live HEK293 cells (Table S1)", "set-up": "dose or concentration left out as unconfirmed", "settings": "NLK, Nluc C, probe 2"}, "[23]": {"target": "PIK3CA (PI3Kα) (Homo sapiens, UniProt P42336)", "test": "NanoBRET target engagement, NanoLuc-PIK3CA, HEK293 cells", "settings": "EC50 (compound IC50, probe displacement), live HEK293, probe 3"}}}
{"smiles": "Cc1nc(Nc2ncc(C(=O)Nc3c(C)cccc3Cl)s2)cc(N2CCN(CCO)CC2)n1", "note": "[Dasatinib]", "values": [{"measurement": "number of kinases occupied >50%", "setting": "[1]", "value": "six"}, {"measurement": "identification of BCR-ABL as a direct target", "setting": "[2]", "value": "failed to identify"}, {"measurement": "Occupancy, % Replicate 2", "setting": "[3]", "value": "No Binding"}, {"measurement": "Occupancy, % Replicate 2", "setting": "[4]", "value": "No Binding"}, {"measurement": "Occupancy, % Replicate 1", "setting": "[5]", "value": "No Binding"}, {"measurement": "Occupancy, % Replicate 2", "setting": "[6]", "value": "No Binding"}, {"measurement": "Occupancy, % Replicate 1", "setting": "[7]", "value": "No Binding"}, {"measurement": "Occupancy, % Replicate 2", "setting": "[8]", "value": "No Binding"}, {"measurement": "Occupancy, % Replicate 1", "setting": "[9]", "value": "No Binding"}, {"measurement": "Occupancy, % Replicate 2", "setting": "[10]", "value": "No Binding"}, {"measurement": "Occupancy, % Replicate 1", "setting": "[11]", "value": "No Binding"}, {"measurement": "Occupancy, % Replicate 2", "setting": "[11]", "value": "No Binding"}, {"measurement": "Occupancy, % Replicate 2", "setting": "[12]", "value": "No Binding"}, {"measurement": "Occupancy, % Replicate 1", "setting": "[13]", "value": "No Binding"}, {"measurement": "Occupancy, % Replicate 2", "setting": "[14]", "value": "No Binding"}, {"measurement": "Occupancy, % Replicate 2", "setting": "[15]", "value": "No Binding"}, {"measurement": "Occupancy, % Replicate 1", "setting": "[16]", "value": "No Binding"}, {"measurement": "Occupancy, % Replicate 2", "setting": "[17]", "value": "No Binding"}, {"measurement": "Occupancy, % Replicate 2", "setting": "[18]", "value": "No Binding"}, {"measurement": "Occupancy, % Replicate 1", "setting": "[19]", "value": "No Binding"}, {"measurement": "Occupancy, % Replicate 2", "setting": "[20]", "value": "No Binding"}, {"measurement": "Occupancy, % Replicate 1", "setting": "[21]", "value": "No Binding"}, {"measurement": "Occupancy, % Replicate 1", "setting": "[22]", "value": "No Binding"}]}
{"smiles": "Cc1nc(-c2cn3c(n2)-c2ccc(-c4cnn(C(C)(C)C(N)=O)c4)cc2OCC3)n(C(C)C)n1", "note": "[Taselisib]", "values": [{"measurement": "IC50", "setting": "[23]; NanoLuc-PIK3CA Replicate 1", "value": 12, "unit": "nM"}, {"measurement": "IC50", "setting": "[23]; NanoLuc-PIK3CA Replicate 2", "value": 10.6, "unit": "nM"}]}
